The nature of the data set: absorption spectra (maxima and extinction coefficients) of benzo[c]xanthene dyes. The format is physicochemical.
Where [1] appears, read: 40 mM potassium phosphate buffer, pH 9.0.

With “5'-(and-6')carboxy-3-hydroxy-10-methoxy-spiro[7H-benzo[c]xanthene-7,1'(3'H)-isobenzofuran]-3'-one [Compound 12]”, under setting [1], the “Absorbance maximum (first)” value turned out to be 542 nm and the “extinction coefficient (first maximum)” value was 21,100 cm^-1 M^-1.

“5'-(and-6')carboxy-10-hydroxy-3-methoxy-spiro[7H-benzo[c]xanthene-7,1'(3'H)-isobenzofuran]-3'-one [Compound 13]”: under setting [1], the “Absorbance maximum (first)” value was determined as 480 nm, the “Absorbance maximum (second)” value was found to be 508 nm, the “extinction coefficient (first maximum)” value is recorded as 23,500 cm^-1 M^-1 and the “extinction coefficient (second maximum)” value was 26,200 cm^-1 M^-1.

`O=C1OC2(c3ccc(O)cc3Oc3c2ccc2cc(O)ccc32)c2ccccc21` (stereo not shown) [Compound 1, 3,10-dihydroxy-spiro[7H-benzo[c]xanthen-7,1'(3'H)-isobenzofuran]-3'-one]: the “ABSORPTION, ACID MAXIMA (second)” value (acid form, longer-wavelength maximum) was determined as 508 NM.
